Earlier results in article PMC7754455 (Journal of Clinical Pharmacology, 2020).

Assays:
[1] = doses up to 30 mg, first week of daily administration, BET115521; cited from earlier work
[2] = preclinical findings; cited from earlier work

For `CCNC(=O)C[C@@H]1N=C(c2ccc(Cl)cc2)c2cc(OC)ccc2-n2c(C)nnc21` [Molibresib], the tolerability in patients [1] is given as “tolerated” and the “preclinical embryofetal development and female fertility risk” value [2] is given as “substantiated risk for adverse effects on embryofetal development and female fertility”.
